Source: patent publication US10160726B2, “Quinolone derivatives as antibacterials” (priority 2014, dated 2018)

Test system: S. aureus ATCC 29213 (NB01001)
Assay: MIC, broth microdilution (CLSI)
Assay type: cell-based
Conditions: Staphylococcus aureus, ATCC29213, 20 h, read-out: Antibacterial activity (MIC) NB01001

For `Cc1c(N2CC[C@@H]([C@H](C)N)C2)c(F)cc2cc(C(=O)O)c(=O)n(C3CC3)c12.Cl` [Example 1.1, 7-((R)-3-((S)-1-aminoethyl)pyrrolidin-1-yl)-1-cyclopropyl-6-fluoro-8-methyl-2-oxo-1,2-dihydroquinoline-3-carboxylic acid hydrochloride salt], which MIC is on record?
The MIC was 0.125 µg/mL.
